Test results reported in ChEMBL document CHEMBL4808148, “HDAC6 screening dataset using tau-based substrate in an enzymatic assay yields selective inhibitors and activators” (2021).
What follows is the remainder of the data, with few or none of the strong results.

molecular target: T1, Protein deacetylase HDAC6 (Homo sapiens) (UniProt Q9UBN7); details: at 10 µM
T1 sequence (whole entry): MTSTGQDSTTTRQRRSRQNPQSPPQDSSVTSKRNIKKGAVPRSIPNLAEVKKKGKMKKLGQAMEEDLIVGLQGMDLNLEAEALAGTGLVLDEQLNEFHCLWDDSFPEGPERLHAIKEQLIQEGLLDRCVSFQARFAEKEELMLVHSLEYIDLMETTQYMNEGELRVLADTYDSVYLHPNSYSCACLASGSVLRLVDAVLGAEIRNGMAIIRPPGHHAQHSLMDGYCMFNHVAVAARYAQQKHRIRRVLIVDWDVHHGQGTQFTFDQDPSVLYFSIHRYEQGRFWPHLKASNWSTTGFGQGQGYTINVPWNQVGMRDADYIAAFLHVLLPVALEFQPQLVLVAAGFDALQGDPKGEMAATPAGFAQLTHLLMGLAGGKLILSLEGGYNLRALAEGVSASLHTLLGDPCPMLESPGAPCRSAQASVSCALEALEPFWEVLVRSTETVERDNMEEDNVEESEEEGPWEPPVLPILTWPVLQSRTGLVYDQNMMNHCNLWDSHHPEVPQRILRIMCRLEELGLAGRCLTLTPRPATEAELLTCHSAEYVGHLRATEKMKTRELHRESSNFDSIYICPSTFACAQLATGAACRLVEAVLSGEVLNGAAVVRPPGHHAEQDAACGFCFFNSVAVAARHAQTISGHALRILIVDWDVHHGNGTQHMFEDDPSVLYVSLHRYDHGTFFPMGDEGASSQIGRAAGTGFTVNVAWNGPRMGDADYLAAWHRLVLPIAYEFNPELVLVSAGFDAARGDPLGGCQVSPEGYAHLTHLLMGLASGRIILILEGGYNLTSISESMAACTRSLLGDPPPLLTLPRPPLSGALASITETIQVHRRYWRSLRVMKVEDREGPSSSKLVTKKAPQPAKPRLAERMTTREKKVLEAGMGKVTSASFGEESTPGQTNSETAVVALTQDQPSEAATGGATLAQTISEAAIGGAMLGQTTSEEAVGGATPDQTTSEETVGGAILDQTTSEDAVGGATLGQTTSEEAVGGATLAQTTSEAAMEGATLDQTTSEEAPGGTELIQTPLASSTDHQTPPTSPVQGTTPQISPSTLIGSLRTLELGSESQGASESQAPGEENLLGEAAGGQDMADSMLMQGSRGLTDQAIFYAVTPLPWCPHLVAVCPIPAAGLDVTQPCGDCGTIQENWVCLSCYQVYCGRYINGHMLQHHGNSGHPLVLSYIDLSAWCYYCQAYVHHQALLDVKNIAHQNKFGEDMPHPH

Structure (SMILES)	inhibition [%]
CC(Cc1ccc(O)cc1)NCC(O)c1cc(O)cc(O)c1 (configuration not stated)	-0.38
COc1ccc(CC(C)NCC(O)c2ccc(O)c(NC=O)c2)cc1 (configuration not stated)	-7.28
